High-throughput results (PubChem BioAssay)
PglD DTNB = C. jejuni PglD acetyltransferase inhibitors, primary screen, biochemical, DTNB colorimetric, single point; AID 602405, 2012; inhibition, % at 12.5 µM; 0.098% of 360,000 active; UDP-N-acetylbacillosamine N-acetyltransferase PglD (Campylobacter jejuni); purified PglD enzyme, DTNB colorimetric CoA detection; in the data active = inhibition above about 16%, passing the limit was not always enough; inconclusive = no clear call, values can overlap the other calls
miR-122 sensor = miR-122 Renilla sensor signal increase in Huh7, primary screen, miR-122 inhibitor project, cell-based, single point, plate reader; Huh7 miR-122 Renilla luciferase sensor, 48 h; neutral wells = 0, positive control = 100; activation (reporter increase), % at 12.5 µM; 0.3% of 340,000 active; AID 602342, 2012;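 active = mean replicate activation score at least 90 and every replicate individually at or above 90; inconclusive = only one of the two criteria met; inactive = neither criterion met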;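 note: higher luciferase means less miR-122 activity so hits act as miR-122 inhibitors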
EWS-Fli block = EWS/Fli-driven NR0B1 reporter inhibitors, primary screen, A673 cells, NR0B1 luciferase, luminescence, MLPCN library. viability-normalised. inhibition, % at 12.6 µM. 0.67% of 350,000 active. AID 651661, 2012;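 active = mean inhibition of at least 50% after viability correction, with every replicate also passing that limit; inconclusive = mean reaches 50% but only one of two replicates passes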;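 note: firefly luciferase signal divided by Alamar Blue viability fluorescence both relative to DMSO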
CFTR F508del cor = F508del CFTR correction, initial screen, CFBE line, single point; CFBE cells, YFP halide quenching; stimulated with forskolin plus potentiator P3; % fluorescence drop versus neutral controls; activity (quench increase), % at 7.58 µM; 0.36% of 350,000 active; AID 720511, 2013;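 active = mean added fluorescence quench of at least 8% versus neutral control, with both replicates also reaching 8%; inconclusive = only one of the mean or replicate conditions met; inactive = mean below 8% and not both replicates reaching 8%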;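 note: cells transiently co-express mutant CFTR-F508del with the halide-sensitive YFP; corrector assay measuring rescue of mutant channel to the surface after 24 h compound exposure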
LGR2 inh = inhibitors of bursicon-induced LGR2 CRE-luciferase signal, primary screen, cell-based, HEK293, CRE-luciferase reporter, bursicon stimulation; Drosophila bursicon receptor LGR2 (rickets); bursicon-stimulated, 4 h; inhibition, % at 9.99 µM; 0.35% of 380,000 active;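 active = drop in luminescence signal, shown as inhibition above about 50% in the replicate tests, limit read from the data, passing the limit was not always enough; inconclusive = probably only some replicates passing the limit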;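 note: agonist challenge used bursicon conditioned medium at about half maximal strength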
Yeast UUG start = modulators of yeast start codon fidelity, primary screen, whole organism, S. cerevisiae, single point, plate reader; S. cerevisiae UUG-firefly luciferase reporter, luminescence/redox ratio; activity score, % at 18.7 µM; actives 0.13% (n = 350,000); AID 602363, 2012;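 active = replicate mean at a twofold rise or more, about +100% in these data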;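 also: firefly luciferase made from a UUG start codon reports start codon fidelity; reporter light over untreated wells divided by growth signal over untreated wells; some hits fall short of that in this replicate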
DNA binder FP = DNA binders by acridine orange displacement, dose response, counter-screen for EWS/Fli inhibitor project, biochemical, fluorescence polarization, cherry-pick. shares compounds with EWS-Fli block. AID 720586, 2013. AC35, µM (doses to about 68 µM), for inactives: at the highest dose activity change, negative = DNA binding. 2% of 640 active. salmon sperm DNA acridine orange fluorescence polarization;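 active = fitted curve reaches a 35% signal fall AC35 below twice the sample's top valid tested dose, actives reach about 48 µM in these data; inactive = the rest, including activity in the rising direction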;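 note: lower polarization ratio signals compound binding to DNA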
Starred values were filed as active, the others as inactive; u = inconclusive; x = no result given; [ ] = another dose, or the depositor's remark. Compounds with a hit are over-represented: about 1.3% of the library has one in this group of screens.

1) C[C@@H]1CN([C@@H](C)CO)C(=O)Cc2cc(N(C)C)ccc2O[C@H]1CN(C)Cc1ccc(C(=O)Nc2ccccc2N)cc1
2) COc1ccc(CN(C)C[C@H]2Oc3ccc(NC(=O)CCCCCC(=O)Nc4ccccc4N)cc3CC(=O)N([C@H](C)CO)C[C@H]2C)cc1
3) C[C@H]1CN([C@@H](C)CO)C(=O)Cc2cc(N(C)C)ccc2O[C@@H]1CN(C)Cc1ccc(C(=O)Nc2ccccc2N)cc1
4) C[C@H]1CN([C@@H](C)CO)C(=O)Cc2cc(NC(=O)CCC(F)(F)F)ccc2O[C@H]1CN(C)Cc1ccc(C(=O)Nc2ccccc2N)cc1
5) O=C(NCCCCc1ccccc1)c1cc([N+](=O)[O-])cc([N+](=O)[O-])c1

assay / compound,1,2,3,4,5
PglD DTNB,2,1,0,-3,5
miR-122 sensor,113*[16.7 µM],0[16.7 µM],27[16.7 µM],20[16.7 µM],5
EWS-Fli block,60*,56*,47,53*,7
CFTR F508del cor,8,0,2,5,1
LGR2 inh,-17,-9,16,11,-1
Yeast UUG start,-1,3,1,-5,-9
DNA binder FP,-2%[60 µM],-4%[56 µM],x,3%[56 µM],x

6) Cc1ccc(-c2cc(C(=O)N/N=C\c3cnn(C)c3C)c3ccccc3n2)cc1C
7) C[C@H](CO)N1C[C@H](C)[C@H](CN(C)S(=O)(=O)c2ccccc2F)Oc2cc(-c3ccncc3)ccc2S1(=O)=O
8) O=C(O)Cc1ccc(NC(=S)Nc2ccc(Br)cc2Cl)cc1
9) Cc1ccc2c(c1)C(=O)N1[C@H]3c4cc(Br)ccc4OC[C@@H]3[C@H](c3ccccc3)[C@]1(C)C(=O)N2
10) CCOc1ccc(CNC(=O)c2ccc(Sc3ccc(Cl)cc3)c(NC(C)=O)c2)cc1

assay / compound,6,7,8,9,10
PglD DTNB,2,0,-5,-5,x
miR-122 sensor,4,-13[16.7 µM],1,-6,x
EWS-Fli block,x,6,1,56*,x
CFTR F508del cor,x,0,1,-7,x
LGR2 inh,x,-17,-4,-4,7
Yeast UUG start,-13,x,-17,-20,x
DNA binder FP,x,x,x,2%,x

11) CC(=O)Nc1cc(C(=O)NCc2ccco2)ccc1Sc1ccc(F)cc1
12) CC(=O)Nc1cc(C(=O)NCc2ccco2)ccc1Sc1ccc(Cl)cc1
13) CCOc1ccccc1CNC(=O)c1ccc(Sc2ccc(Cl)cc2)c(NC(C)=O)c1
14) Cc1[nH]c2ccccc2c1-c1csc(NC(=O)CSCCO)n1
15) COc1ccc(OC)c(-c2nnc3n2N=C(c2ccc(OC)c(OC4CCOC4)c2)CS3)c1 (configuration not stated)

assay / compound,11,12,13,14,15
PglD DTNB,x,x,-4,x,11
miR-122 sensor,x,x,1,8,36
EWS-Fli block,85*,-13,80*,7,59*
CFTR F508del cor,x,x,x,-4,1
LGR2 inh,-4,x,-5,-8,-1
Yeast UUG start,x,x,0,x,-19
DNA binder FP,-7%,x,5%,x,-2%

16) Cc1cccc(/C=C2/Sc3ccc(C(=O)NCCN4CCCC4)cc3NC2=O)c1
17) O=C1Nc2cc(C(=O)NCCN3CCCCCC3)ccc2S/C1=C\c1ccccc1
18) COc1ccccc1NC(=O)N1CCCCN2[C@H](C1)[C@H](c1ccc(C#CC3CCCC3)cc1)[C@@H]2CO
19) COc1cc(/C=N/NS(=O)(=O)c2ccc3ccccc3c2)ccc1OCc1ccc(C(=O)O)cc1
20) COc1ccc(/C=N/NS(=O)(=O)c2ccc(C)cc2)cc1OC(=O)c1ccccc1

assay / compound,16,17,18,19,20
PglD DTNB,x,-3,1,-4,-1
miR-122 sensor,-2,3,-1[16.7 µM],-3,14
EWS-Fli block,x,60*,0,69*,x
CFTR F508del cor,2,1,-3,-2,x
LGR2 inh,-61,-3,-10,82*,x
Yeast UUG start,x,-10,0,-64,10
DNA binder FP,x,-1%,x,10%,x

21) COc1cc(/C=N/NS(=O)(=O)c2ccc(C)cc2)ccc1OCc1cccc(C(=O)O)c1
22) COc1cc(/C=N/O)ccc1OCc1ccc(C(=O)O)cc1
23) Cc1c(C)n(Cc2ccccc2)c2ncnc(NCCCO)c12
24) O=[N+]([O-])c1ccc(CN2CCOCCOCCOCC2)cc1
25) COc1ccc(C(=O)CC2SC(N)=NC2=O)cc1 (configuration not stated)

assay / compound,21,22,23,24,25
PglD DTNB,1,-3,x,7,x
miR-122 sensor,0,-5,x,6,x
EWS-Fli block,79*,x,18,-3,-1
CFTR F508del cor,-1,x,-2,-2,1
LGR2 inh,80*,x,0,-10,2
Yeast UUG start,-67,-81,x,-8,x
DNA binder FP,-9%,x,x,x,x

Entries above that contain fluorine:
4) C[C@H]1CN([C@@H](C)CO)C(=O)Cc2cc(NC(=O)CCC(F)(F)F)ccc2O[C@H]1CN(C)Cc1ccc(C(=O)Nc2ccccc2N)cc1
7) C[C@H](CO)N1C[C@H](C)[C@H](CN(C)S(=O)(=O)c2ccccc2F)Oc2cc(-c3ccncc3)ccc2S1(=O)=O
11) CC(=O)Nc1cc(C(=O)NCc2ccco2)ccc1Sc1ccc(F)cc1

assay / compound,4,7,11
PglD DTNB,-3,0,x
miR-122 sensor,20[16.7 µM],-13[16.7 µM],x
EWS-Fli block,53*,6,85*
CFTR F508del cor,5,0,x
LGR2 inh,11,-17,-4
Yeast UUG start,-5,x,x
DNA binder FP,3%[56 µM],x,-7%

Continued:
26) N#CC(=C1C=CC(=NO)C(Cl)=C1)c1ccccc1
27) CC(C)C#Cc1ccc([C@H]2[C@H]3CN(C(=O)Cc4ccccc4)CC(=O)N3[C@H]2CO)cc1
28) COc1ccccc1CNc1ncc(-c2ccc(F)cc2)n1C
29) COc1ccc(CNc2ncc(-c3ccc(F)cc3)n2C)c2ccccc12
30) Cc1ccc(S(=O)(=O)N(C)C[C@@H]2Oc3cc(C#Cc4ccncc4)ccc3S(=O)(=O)N([C@@H](C)CO)C[C@H]2C)cc1

assay / compound,26,27,28,29,30
PglD DTNB,x,x,0,-1,7
miR-122 sensor,x,x,6,2,-18[16.7 µM]
EWS-Fli block,51*,-9,-4,82*,53*
CFTR F508del cor,1,1,3,3,2
LGR2 inh,3,-3,-9,0,x
Yeast UUG start,x,x,5,-8,x
DNA binder FP,-2%,x,x,4%,-3%

31) C[C@@H]1CN([C@H](C)CO)S(=O)(=O)c2ccc(C#Cc3ccncc3)cc2O[C@@H]1CN(C)S(=O)(=O)c1ccccc1
32) C[C@@H]1CN([C@@H](C)CO)S(=O)(=O)c2ccc(C#Cc3ccncc3)cc2O[C@H]1CN(C)S(=O)(=O)c1ccccc1
33) Cc1ccc(S(=O)(=O)N(C)C[C@H]2Oc3cc(C#Cc4ccncc4)ccc3S(=O)(=O)N([C@@H](C)CO)C[C@@H]2C)cc1
34) Cc1noc(C)c1NC(=O)N(C)C[C@@H]1Oc2ccc(NC(=O)Nc3ccc(F)cc3)cc2C(=O)N([C@@H](C)CO)C[C@H]1C
35) CCOc1ccc(OCc2cccc(C(=O)N/N=C/c3cccnc3)c2)cc1

assay / compound,31,32,33,34,35
PglD DTNB,4,5,-4,7,1
miR-122 sensor,41[16.7 µM],-3[16.7 µM],57[16.7 µM],-1[16.7 µM],-2
EWS-Fli block,14,73*,22,-7,x
CFTR F508del cor,2,-1,0,-2,x
LGR2 inh,2,36,-11,13,u
Yeast UUG start,-6,-2,x,-6,-21
DNA binder FP,x,6%,x,x,x

36) CC(C)c1ccc(OCc2cccc(C(=O)N/N=C/c3cccnc3)c2)cc1
37) COCCCNC(=O)c1ccc(-c2nc3ccccc3nc2-c2ccccc2)cc1
38) CC(=O)/C(=C/c1ccccc1)C(=O)Nc1ccccc1C
39) Cc1ccccc1NC(=O)C(=Cc1ccc(C(=O)O)cc1)C(=O)Nc1ccccc1C

assay / compound,36,37,38,39
PglD DTNB,-6,0,4,x
miR-122 sensor,4,2,-7,x
EWS-Fli block,80*,2,3,54*
CFTR F508del cor,-2,x,x,-6
LGR2 inh,45,7,17,27
Yeast UUG start,-14,-13,-8,x
DNA binder FP,-4%,x,x,-9%
